Reference: PubChem BioAssay AID504706 (National Center for Advancing Translational Sciences (NCATS), 2011)
“And” between values parts separate entries of the source, which are not always exact repeats. Equal entries are not always repeated. Only a part is listed here, and it is no random draw. Inconclusive results are not listed. The source made the active and inactive calls. Calls follow the shape of the dose curve; as a rule, active = well fitted activation curve with a large enough effect; inconclusive = small, poorly fitted or top-dose-only effect; inactive = no such curve, though single readings can be large or run the other way.

Assay: qHTS assay for re-activators of p53 using a Luc reporter; also: % of control where 0% means no effect; nearly all actives have a fitted effect of over 45% in size
Settings: H1299 p53-A138V BP100-luciferase reporter, luminescence, 24 h; at 92.2 µM (top of the series)
Excerpt: The p53 tumor suppressor plays a key role in suppression of tumorigenesis and in human carcinogenesis. It is frequently found inactivated in human cancers, mainly by point mutation. These point mutations are found in a wide variety of human cancers and a majority of them affect the DNA binding domain of the protein. The point mutations either alter native p53 conformation or abolish DNA contact. Additionally, cancer cells with p53 mutations are more resistant to chemo-radiation therapies. In order to find activators to reactivate this important protein, a cell-based screen for p53-dependent luciferase-reporter expression was developed. A p53-null H1299 lung cancer cell line was stably co-transfected with a temperature sensitive p53 mutant, p53-A138V, and a p53-responsive BP100-luciferase reporter. This cell model has previously been characterized in a gene chip profiling experiment for p53 activation. By lowering the culture temperature from 37 deg C (mutant p53 conformation) to 32 deg C (w.t. p53 conformation), a 30-60 fold increase in activation of luciferase activity is observed. At assay temperate, 37 deg C, basal reporter expression is very low and after the addition of detection reagent, a luminescent read-out is carried out. NIH Chemical Genomics Center [NCGC] NIH Molecular Libraries Probe Production Centers Network [MLPCN] MLPCN Grant: DA031088-01A1 Assay Provider (PI): Yi Sung, University of Michigan at Ann Arbor
5ul of 1000 cells per well are dispensed in all wells except column 4, into white solid-bottom TC-treated Kalypsys plates. The cells are kept in Opti-MEM and supplemented with 10% FBS and dispensed using a Multidrop (Thermo). Then using the Kalypsys pin-tool, 23nl of compounds are pinned. The compounds are starting concentration at 10mM, with 1:5 dilution, 4 points, and the control compound nocodazole is pinned in column 1 at 25mM, 1:3 dilution, in duplicate, 25mM nocodazole is pinned in column 2. Please note, all concentrations are working concentrations. 5ul of 1pM purified luciferase enzyme is dispensed using the Kalypsys dispenser in column 4. Plates are incubated for 24 hrs at 37 deg C, 5% CO2, and 95% humidity. Then 4ul of the detection reagent Amplite (ABD Bioquest) is added using the Kalypsys dispenser. Plates are incubated for 10 min at ambient room temperature and are then read on the ViewLux (Perkin Elmer) using a clear filter for a luminescent read-out.

SMILES	activity change, positive = activation
CN1CCCC(OC(=O)C(c2ccccc2)c2ccccc2)C1 (stereo unspecified)	inactive: -10.5%
Clc1ccc(Cl)c(NC2=NCC(CBr)S2)c1 (stereo unspecified)	inactive: -4.73%
O=[N+]([O-])c1cc([N+](=O)[O-])c(CCN2CCOCC2)c([N+](=O)[O-])c1	inactive: 1.97%
CCN(N=Nc1nonc1N)c1nonc1N	inactive: -6.76%
Nc1cccc2ccc([As](=O)(O)O)cc12	inactive: -7.82%
CC(=O)Nc1ccc([As](=O)(O)O)cc1	inactive: 3.25%
O=C(O)c1ccccc1[As](=O)(O)O	inactive: 1.29%
O=P(Nc1nc2ccc(Cl)cc2s1)(c1ccccc1)c1ccccc1	inactive: 3.31%
Cc1cc(SC(NC(=O)c2ccc(F)cc2)C(Cl)(Cl)Cl)ncn1 (stereo unspecified)	inactive: -30.1%
CCOP(=O)(Nc1ccccc1)OCC	inactive: -5.22% and inactive: -5.39%
Cc1ccc(NP(=O)(Oc2ccccc2F)Oc2ccccc2F)nc1	inactive: 0.13%
CC(C)c1ccc(OP(=O)(Nc2ccccn2)Oc2ccccc2F)cc1 (stereo unspecified)	inactive: -1.51%
CC(C)NC(=O)NP(=O)(Oc1ccccc1)Oc1ccccc1	inactive: 3.05%
CCN(CC)C(=S)SC(NC=O)C(Cl)(Cl)Cl (stereo unspecified)	inactive: 4.8%
O=[N+]([O-])c1cc([N+](=O)[O-])c(-c2ccn[nH]2)s1	inactive: -15.1%
C[As](=O)(O)c1cccc(C(=O)O)c1	inactive: 4.71%
O=[As](O)(c1ccc(O)cc1)c1ccccc1O	inactive: -3.39%
COc1cc(C(=O)NCC2(N3CCOCC3)CCCCC2)ccc1OCC(C)C	inactive: 1.87%
Cc1ccc(OP(=O)(Nc2ccc([N+](=O)[O-])cn2)Oc2ccc(C)cc2)cc1	inactive: 2.64%
COc1ccc(N/C(=N/P(=O)(N2CCOCC2)N2CCOCC2)N2CCOCC2)cc1	inactive: -1.52%
O=C(OC1CN2CCC1CC2)C12CC3CC(CC(C3)C1)C2 (stereo unspecified)	inactive: 1.52%
Cc1cc(=O)[nH]c(N[N+](=O)[O-])n1	inactive: 0.119%
Cc1c2c(nc3ccccc13)SC(C(Cl)Cl)C2 (stereo unspecified)	inactive: 3.5%
COc1ccc2nc(NP(=O)(c3ccccc3)c3ccccc3)sc2c1	inactive: -6.23%
COc1cc(I)ccc1[As](=O)(O)O	inactive: -2.85%
CCOC(=O)c1ccc(NC(=O)C(C)(CCl)SC)cc1 (stereo unspecified)	inactive: 16.4%

SMILES	activity change, positive = activation
O=C(OC1CN2CCC1CC2)c1cccc([N+](=O)[O-])c1 (stereo unspecified)	inactive: 4.77%
COP1(=S)c2c(C)nn(CCC#N)c2N=C(c2ccc(F)cc2)N1C (stereo unspecified)	inactive: 12.7%
O=C(COc1ccccc1)OC1CN2CCC1CC2 (stereo unspecified)	inactive: 0.494%
O=C(Nc1ccncc1[N+](=O)[O-])c1ccc([N+](=O)[O-])cc1[N+](=O)[O-]	inactive: 15.5%
CCOC(=O)Nc1cccc([As](=O)(O)O)c1	inactive: 1.04%
O=[N+]([O-])c1ccc(Nc2ccc(Oc3ccc([N+](=O)[O-])cc3[N+](=O)[O-])cc2)c([N+](=O)[O-])c1	inactive: -3.03%
O=P(Nc1ccccn1)(c1cccc2ccccc12)c1cccc2ccccc12	inactive: -5.36%
Cc1cc(SC(NC=O)C(Cl)(Cl)Cl)ncn1 (stereo unspecified)	inactive: -0.143%
CCOC(=O)Nc1ccc([As](=O)(O)O)c(O)c1	inactive: 0.744%
CCCCOc1ccc(C(=O)NCC2(N3CCCCC3)CCCCC2)cc1OC	inactive: -2.66%
Cc1cc(SC(NC(=O)c2ccccc2)C(Cl)(Cl)Cl)nc(C(C)C)n1 (stereo unspecified)	inactive: 12%
O=P1(Nc2ncccn2)COc2ccccc2OC1	inactive: -0.87%
O=[As](O)(c1cccs1)c1cccs1	inactive: 1.16%
Cc1ccc(OCC(=O)OC2CN3CCC2CC3)cc1 (stereo unspecified)	inactive: 13.2%
O=P1(Nc2ccc(Br)cn2)COc2ccccc2OC1	inactive: -3.15%
NS(=O)(=O)c1cccc(NC(=O)COC(=O)C(O)(c2ccccc2)c2ccccc2)c1	inactive: -1.2%
Nc1cccc([As](=O)(O)c2ccccc2)c1	inactive: -0.754%
Cc1nn(-c2ccccc2)c2c1P(=O)(N1CCOCC1)N(C)C(c1ccccc1)=N2 (stereo unspecified)	inactive: -6.76%
CC1CCC(C(C)C)C(OP(=O)(Nc2ccccn2)c2ccccc2)C1 (stereo unspecified)	inactive: -3.97%
Cc1ccc(C(=O)OC2CN3CCC2CC3)cc1 (stereo unspecified)	inactive: -4.35%
O=C(/C=C/c1ccccc1)OC1CN2CCC1CC2 (stereo unspecified)	inactive: 2.9%
CN(C)C1(CNC(=O)c2ccc(S(C)(=O)=O)cc2)CCCCC1	inactive: -1.05%
COc1ccccc1CNC(=O)COC(=O)C(O)(c1ccccc1)c1ccccc1	inactive: -4.32%
O=[As](O)(c1ccccc1Br)c1ccccc1Br	inactive: -4.32%
CC(C)/C=N\N=C(\N)N[N+](=O)[O-]	inactive: 9.67%
CCOP(=O)(Nc1ccc(C)cn1)OCC	inactive: 0.302%

SMILES	activity change, positive = activation
O=P1(Nc2ccccn2)COc2ccccc2OC1	inactive: -5.62%
CCOP(=O)(NC(=NC(C)c1ccccc1)NC(C)c1ccccc1)OCC (stereo unspecified)	inactive: -3.2%
Clc1n[nH]nc1-c1nn[nH][15n]1	inactive: -2.07%
CC(C)(C)C(=O)NC(Sc1ncccn1)C(Cl)(Cl)Cl (stereo unspecified)	inactive: 0.803%
CCCOP(=S)(Nc1nc(N)cc(=O)[nH]1)OCCC	inactive: 5.55%
Nc1cccc2c([As](=O)(O)O)cccc12	inactive: -11.9%
COc1cc(C2NCCC3(OCCO3)C2(C)C)cc(OC)c1OC (stereo unspecified)	inactive: -2.54%
CCOP(=O)(Nc1cccc2ccccc12)OCC	inactive: -11.8%
O=[As](O)(O)c1cccnc1	inactive: 4.1%
COc1cc(C(=O)NCC2(N3CCOCC3)CCCCC2)cc(Cl)c1OC(C)C	inactive: 3.32%
CS(=O)(=O)c1ccc(Cl)c(NC(=O)COC(=O)C(O)(c2ccccc2)c2ccccc2)c1	inactive: -0.347%
O=C(OC1CN2CCC1CC2)c1ccc(Cl)cc1 (stereo unspecified)	inactive: -5.46%
O=[As](O)(c1cccc(O)c1)c1cccc(O)c1	inactive: -2.2%
NC(=O)Nc1ccc([As](=O)(O)O)cc1	inactive: 0.68%
O=[N+]([O-])c1ccc2c(c1)nnn2O	inactive: 5.71%
N#CCCN(C(=O)COC(=O)C(O)(c1ccccc1)c1ccccc1)c1ccc(F)cc1	inactive: 5.17%
CCOP1(=S)c2c(C)nn(CCC#N)c2N=C(c2ccc(F)cc2)N1C (stereo unspecified)	inactive: -1.21%
CN(C(=O)Cc1ccccc1)[C@@H]1CC[C@]2(CCCO2)C[C@H]1N1CCCC1	inactive: -1.34%
CS(=O)(=O)c1cc([N+](=O)[O-])c2no[n+]([O-])c2c1	inactive: 22.1%
CCOP1(=S)c2c(C)nn(CCC#N)c2N=C(c2ccccc2F)N1C (stereo unspecified)	inactive: -9.49%
O=P(Nc1nccs1)(Oc1ccccc1)Oc1ccccc1	inactive: -2.56%
O=P(Nc1nccs1)(c1ccccc1)c1nc2ccccc2s1 (stereo unspecified)	inactive: -34%
Nc1ccccc1[As](=O)(O)c1ccccc1	inactive: 6.83%
O=C(O)COc1ccc([As](=O)(O)O)cc1[N+](=O)[O-]	inactive: 0.608%
